The record followed here is patent US7514582B2, “2′-substituted 1,1′-biphenyl-2-carboxamides, processes for their preparation, their use as medicaments, and pharmaceutical preparations comprising them” (Sanofi-Aventis Deutschland GmbH, priority 1999, dated 2009).

Chains of the proteins cited; added tags and fusions are not shown.
UniProt P22460, whole entry: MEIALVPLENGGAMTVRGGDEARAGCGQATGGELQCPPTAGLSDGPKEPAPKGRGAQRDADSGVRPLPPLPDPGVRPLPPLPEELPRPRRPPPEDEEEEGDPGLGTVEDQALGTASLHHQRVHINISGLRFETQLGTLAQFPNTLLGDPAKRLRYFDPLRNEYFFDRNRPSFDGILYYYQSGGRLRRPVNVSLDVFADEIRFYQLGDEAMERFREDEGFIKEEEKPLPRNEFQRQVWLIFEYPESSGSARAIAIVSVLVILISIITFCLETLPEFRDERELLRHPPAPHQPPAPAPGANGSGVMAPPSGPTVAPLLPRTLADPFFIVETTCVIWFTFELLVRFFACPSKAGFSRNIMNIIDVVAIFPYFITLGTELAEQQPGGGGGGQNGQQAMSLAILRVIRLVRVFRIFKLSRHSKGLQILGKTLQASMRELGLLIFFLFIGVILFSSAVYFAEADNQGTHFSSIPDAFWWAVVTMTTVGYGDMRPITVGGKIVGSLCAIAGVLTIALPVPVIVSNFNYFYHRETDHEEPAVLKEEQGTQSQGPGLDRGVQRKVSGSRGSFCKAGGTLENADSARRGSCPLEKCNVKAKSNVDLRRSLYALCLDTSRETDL

The term IC50 denotes the midpoint of a concentration-inhibition curve.

In this experiment the target is T1, Kv1.5 channels from humans (Homo sapiens, UniProt P22460).
T1 construct: expressed in transfected cells; host or cells: Xenopus laevis oocytes injected with in vitro synthesized RNA
Put plainly: Kv1.5 currents in Xenopus oocytes, two-microelectrode voltage clamp. Type of experiment: cell-based. The protocol: Kv1.5 channels from humans were expressed in Xenopus oocytes. For this, oocytes from Xenopus laevis were first isolated and defolliculated. RNA encoding Kv1.5 synthesized in vitro was then injected into these oocytes. After Kv1.5 protein expression for 1-7days, Kv1.5 currents were measured on the oocytes using the two-microelectrode voltage clamp technique. The Kv1.5 channels were in this case as a rule activated using voltage jumps to 0 mV and 40 mV lasting 500 ms. The bath was rinsed with a solution of the following composition: NaCl 96 mM, KCl 2 mM, CaCl2 1.8 mM, MgCl2 1 mM, HEPES 5 mM (titrated with NaOH to pH 7.4). These experiments were carried out at room temperature. The following were employed for data acquisition and analysis: Genedamp amplifier (Axon Instruments, Foster City, USA) and MacLab D/A converter and software (AD Instruments, Castle Hill, Australia). The substances according to the invention were tested by adding them in different concentrations to the bath solution. The effects of the substances were calculated as the percentage inhibition of the Kv1.5 control current which was obtained when no substance was added to the solution. The data were then extrapolated using the Hill equation in order to determine the inhibitory concentration IC50 for the respective substances.
Regarding `C[C@H](OC(=O)NCc1ccccc1-c1ccccc1C(=O)NCCc1ccccn1)c1ccccc1` [1 j], the IC50 was determined as 0.2 µM. This lies in the sub-micromolar range.

Compound `C[C@@H](OC(=O)NCc1ccccc1-c1ccccc1C(=O)NCCc1ccccn1)c1ccccc1` [1 k] showed an IC50 of 2.4 µM.

For `O=C(NCc1ccccc1-c1ccccc1C(=O)NCCc1ccccn1)OCc1ccccc1` [2 c], the half-inhibitory concentration (IC50) was 0.7 µM.

With `COC(=O)NCc1ccccc1-c1ccccc1C(=O)NCCC(C)C` [2 f], the IC50 came to 7.1 µM.

In turn, `CC(C)CCNC(=O)c1ccccc1-c1ccccc1CNC(=O)c1ccccc1` [4 a] came in with an IC50 of 4.1 µM.

Compound `COc1ccc(CC(=O)NCc2ccccc2-c2ccccc2C(=O)NCc2ccc(F)cc2F)cc1` [4 c] registered an IC50 of 1.4 µM.

Regarding `COc1ccc(CC(=O)NCc2ccccc2-c2ccccc2C(=O)NCCc2cccnc2)cc1` [4 i], half-maximal inhibition (IC50) was put at 4.7 µM.
